In patent US20140100156A1 (SANOFI, priority 2012, published 2014):
Where two headings read alike, the source gives them in different places.

By UniProt entry, the sequences of proteins in these tests, tags left out. Residues count along the entry.
UniProt P47871, 26-477: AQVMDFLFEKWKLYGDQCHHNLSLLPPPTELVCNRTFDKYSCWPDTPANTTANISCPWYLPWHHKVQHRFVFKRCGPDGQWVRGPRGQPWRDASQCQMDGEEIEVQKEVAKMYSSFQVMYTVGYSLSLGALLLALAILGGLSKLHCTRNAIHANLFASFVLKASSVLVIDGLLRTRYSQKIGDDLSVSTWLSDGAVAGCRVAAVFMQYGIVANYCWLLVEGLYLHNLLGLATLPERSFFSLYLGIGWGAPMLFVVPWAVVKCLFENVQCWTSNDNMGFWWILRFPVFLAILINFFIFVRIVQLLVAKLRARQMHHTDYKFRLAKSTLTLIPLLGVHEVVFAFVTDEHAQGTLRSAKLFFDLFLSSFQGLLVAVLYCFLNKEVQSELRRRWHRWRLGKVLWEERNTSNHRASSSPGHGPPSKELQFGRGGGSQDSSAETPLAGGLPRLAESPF
UniProt P43220, 24-463: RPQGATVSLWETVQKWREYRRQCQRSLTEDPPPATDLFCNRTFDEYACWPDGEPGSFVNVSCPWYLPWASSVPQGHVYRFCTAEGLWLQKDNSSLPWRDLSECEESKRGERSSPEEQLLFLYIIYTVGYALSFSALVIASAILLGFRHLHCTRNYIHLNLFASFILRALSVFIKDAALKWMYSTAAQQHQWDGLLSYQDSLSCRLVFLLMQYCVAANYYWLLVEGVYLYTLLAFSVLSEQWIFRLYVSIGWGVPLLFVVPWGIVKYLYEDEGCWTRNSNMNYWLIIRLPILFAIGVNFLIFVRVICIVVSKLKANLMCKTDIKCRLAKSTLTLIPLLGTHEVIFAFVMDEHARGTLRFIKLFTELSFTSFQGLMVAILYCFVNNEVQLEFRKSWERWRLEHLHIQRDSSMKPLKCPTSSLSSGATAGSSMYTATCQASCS

Assays:
[1] = biological target: T1, human glucagon receptor (Homo sapiens, UniProt P47871); assay: cAMP response (HTRF) of HEK-293 cells stably expressing human glucagon receptor; format: cell-based; conditions: read-out: EC50 hGlucagon-R
T1 construct: expressed in transfected cells; host or cells: HEK-293

[2] = biological target: T2, human GLP-1 receptor (Homo sapiens, UniProt P43220); assay: cAMP response (HTRF) of HEK-293 cells stably expressing human GLP-1 receptor; format: cell-based; conditions: read-out: EC50 hGLP-1R
T2 construct: expressed in transfected cells; host or cells: HEK-293

[3] = Table 8, comparison testing of position 14

Row | Structure (SMILES) | EC50 [1, 3] | EC50 [2, 3] | EC50 ([1]; Table 5, cAMP, HEK-293) | EC50 ([2]; Table 5, cAMP, HEK-293)
1 | CCCCCCCCCCCCCCCCCC(=O)N[C@@H](CCC(=O)NCCCC[C@H](NC(=O)[C@H](CCC(N)=O)NC(=O)[C@H](CCCCN)NC(=O)[C@H](CO)NC(=O)[C@H](CC(C)C)NC(=O)[C@H](CC(=O)O)NC(=O)[C@H](CO)NC(=O)[C@@H](NC(=O)[C@H](Cc1ccccc1)NC(=O)[C@@H](NC(=O)CNC(=O)[C@H](CCC(N)=O)NC(=O)C(C)(C)NC(=O)[C@@H](N)Cc1c[nH]cn1)[C@@H](C)O)[C@@H](C)O)C(=O)N[C@@H](CC(=O)O)C(=O)N[C@@H](CCC(=O)O)C(=O)N[C@@H](CCC(N)=O)C(=O)N[C@@H](CCCNC(=N)N)C(=O)N[C@@H](C)C(=O)N[C@@H](CCCCN)C(=O)N[C@@H](CC(=O)O)C(=O)N[C@@H](Cc1ccccc1)C(=O)N[C@H](C(=O)N[C@@H](CCC(=O)O)C(=O)N[C@@H](Cc1c[nH]c2ccccc12)C(=O)N[C@@H](CC(C)C)C(=O)N[C@@H](CCCCN)C(=O)N[C@@H](CO)C(=O)NCC(=O)NCC(=O)N1CCC[C@H]1C(=O)N[C@@H](CO)C(=O)N[C@@H](CO)C(=O)NCC(=O)N[C@@H](C)C(=O)N1CCC[C@H]1C(=O)N1CCC[C@H]1C(=O)N1CCC[C@H]1C(=O)N[C@@H](CO)C(N)=O)[C@@H](C)CC)C(=O)O [compound 175] |  |  | 0.0031 nM | 0.0025 nM
2 | CC[C@H](C)[C@H](NC(=O)[C@H](Cc1ccccc1)NC(=O)[C@H](CC(=O)O)NC(=O)[C@H](CCC(N)=O)NC(=O)[C@H](C)NC(=O)[C@H](CCCNC(=N)N)NC(=O)[C@H](CCCNC(=N)N)NC(=O)[C@H](CO)NC(=O)[C@H](CC(=O)O)NC(=O)[C@H](CCSC)NC(=O)[C@H](CCC(N)=O)NC(=O)[C@H](CCCCN)NC(=O)[C@H](CO)NC(=O)[C@H](CC(C)C)NC(=O)[C@H](CC(=O)O)NC(=O)[C@H](CO)NC(=O)[C@@H](NC(=O)[C@H](Cc1ccccc1)NC(=O)[C@@H](NC(=O)CNC(=O)[C@H](CCC(N)=O)NC(=O)C(C)(C)NC(=O)[C@@H](N)Cc1c[nH]cn1)[C@@H](C)O)[C@@H](C)O)C(=O)N[C@@H](CCC(=O)O)C(=O)N[C@@H](Cc1c[nH]c2ccccc12)C(=O)N[C@@H](CC(C)C)C(=O)N[C@@H](CCCCN)C(=O)N[C@@H](CC(N)=O)C(=O)NCC(=O)NCC(=O)N1CCC[C@H]1C(=O)N[C@@H](CO)C(=O)N[C@@H](CO)C(=O)NCC(=O)N[C@@H](C)C(=O)N1CCC[C@H]1C(=O)N1CCC[C@H]1C(=O)N1CCC[C@H]1C(=O)N[C@@H](CO)C(N)=O [compound 182] | 0.419 nM | 0.0058 nM |  | 
3 | CC[C@H](C)[C@H](NC(=O)[C@H](Cc1ccccc1)NC(=O)[C@H](CC(=O)O)NC(=O)[C@H](CCC(N)=O)NC(=O)[C@H](C)NC(=O)[C@H](CCCNC(=N)N)NC(=O)[C@H](CCCNC(=N)N)NC(=O)[C@H](CO)NC(=O)[C@H](CC(=O)O)NC(=O)[C@H](CCCCN)NC(=O)[C@H](CCC(N)=O)NC(=O)[C@H](CCCCN)NC(=O)[C@H](CO)NC(=O)[C@H](CC(C)C)NC(=O)[C@H](CC(=O)O)NC(=O)[C@H](CO)NC(=O)[C@@H](NC(=O)[C@H](Cc1ccccc1)NC(=O)[C@@H](NC(=O)CNC(=O)[C@H](CCC(N)=O)NC(=O)[C@@H](CO)NC(=O)[C@@H](N)Cc1c[nH]cn1)[C@@H](C)O)[C@@H](C)O)C(=O)N[C@@H](CCC(=O)O)C(=O)N[C@@H](Cc1c[nH]c2ccccc12)C(=O)N[C@@H](CC(C)C)C(=O)N[C@@H](CCCCN)C(=O)N[C@@H](CC(N)=O)C(=O)NCC(=O)NCC(=O)N1CCC[C@H]1C(=O)N[C@@H](CO)C(=O)N[C@@H](CO)C(=O)NCC(=O)N[C@@H](C)C(=O)N1CCC[C@H]1C(=O)N1CCC[C@H]1C(=O)N1CCC[C@H]1C(=O)N[C@@H](CO)C(N)=O [compound 183] | 0.916 nM | 1.02 nM |  | 
4 | CC[C@H](C)[C@H](NC(=O)[C@H](Cc1ccccc1)NC(=O)[C@H](CC(=O)O)NC(=O)[C@H](CCC(N)=O)NC(=O)[C@H](C)NC(=O)[C@H](CCCNC(=N)N)NC(=O)[C@H](CCCNC(=N)N)NC(=O)[C@H](CO)NC(=O)[C@H](CCC(=O)O)NC(=O)[C@H](CCSC)NC(=O)[C@H](CCC(N)=O)NC(=O)[C@H](CCCCN)NC(=O)[C@H](CO)NC(=O)[C@H](CC(C)C)NC(=O)[C@H](CC(=O)O)NC(=O)[C@H](CO)NC(=O)[C@@H](NC(=O)[C@H](Cc1ccccc1)NC(=O)[C@@H](NC(=O)CNC(=O)[C@H](CCC(N)=O)NC(=O)[C@@H](CO)NC(=O)[C@@H](N)Cc1c[nH]cn1)[C@@H](C)O)[C@@H](C)O)C(=O)N[C@@H](CCC(=O)O)C(=O)N[C@@H](Cc1c[nH]c2ccccc12)C(=O)N[C@@H](CC(C)C)C(=O)N[C@@H](CCCCN)C(=O)N[C@@H](C)C(=O)NCC(=O)NCC(=O)N1CCC[C@H]1C(=O)N[C@@H](CO)C(=O)N[C@@H](CO)C(=O)NCC(=O)N[C@@H](C)C(=O)N1CCC[C@H]1C(=O)N1CCC[C@H]1C(=O)N1CCC[C@H]1C(=O)N[C@@H](CO)C(N)=O [compound 184] | 0.991 nM | 0.0857 nM |  | 
5 | CC[C@H](C)[C@H](NC(=O)[C@H](Cc1ccccc1)NC(=O)[C@H](CC(=O)O)NC(=O)[C@H](CCC(N)=O)NC(=O)[C@H](C)NC(=O)[C@H](CCCNC(=N)N)NC(=O)[C@H](CCCNC(=N)N)NC(=O)[C@H](CO)NC(=O)[C@H](CC(=O)O)NC(=O)[C@H](CCSC)NC(=O)[C@H](CCC(N)=O)NC(=O)[C@H](CCCCN)NC(=O)[C@H](CO)NC(=O)[C@H](CC(C)C)NC(=O)[C@H](CC(=O)O)NC(=O)[C@H](CO)NC(=O)[C@@H](NC(=O)[C@H](Cc1ccccc1)NC(=O)[C@@H](NC(=O)CNC(=O)[C@H](CCC(N)=O)NC(=O)[C@@H](CO)NC(=O)[C@@H](N)Cc1c[nH]cn1)[C@@H](C)O)[C@@H](C)O)C(=O)N[C@@H](CCC(=O)O)C(=O)N[C@@H](Cc1c[nH]c2ccccc12)C(=O)N[C@@H](CC(C)C)C(=O)N[C@@H](CCCCN)C(=O)N[C@@H](CCCCN)C(=O)NCC(=O)NCC(=O)N1CCC[C@H]1C(=O)N[C@@H](CO)C(=O)N[C@@H](CO)C(=O)NCC(=O)N[C@@H](C)C(=O)N1CCC[C@H]1C(=O)N1CCC[C@H]1C(=O)N1CCC[C@H]1C(=O)N[C@@H](CO)C(N)=O [compound 186] | 0.59 nM | 0.102 nM |  | 

Continued by falling EC50 [1, 3], values first:

Row | EC50 [1, 3] | EC50 [2, 3] | Structure (SMILES) | EC50 ([1]; Table 5, cAMP, HEK-293) | EC50 ([2]; Table 5, cAMP, HEK-293)
6 | 0.262 nM | 0.0757 nM | CC[C@H](C)[C@H](NC(=O)[C@H](Cc1ccccc1)NC(=O)[C@H](CC(=O)O)NC(=O)[C@H](CCC(N)=O)NC(=O)[C@H](C)NC(=O)[C@H](CCCNC(=N)N)NC(=O)[C@H](CCCNC(=N)N)NC(=O)[C@H](CO)NC(=O)[C@H](CC(=O)O)NC(=O)[C@H](CCSC)NC(=O)[C@H](CCC(N)=O)NC(=O)[C@H](CCCCN)NC(=O)[C@H](CO)NC(=O)[C@H](CC(C)C)NC(=O)[C@H](CC(=O)O)NC(=O)[C@H](CO)NC(=O)[C@@H](NC(=O)[C@H](Cc1ccccc1)NC(=O)[C@@H](NC(=O)CNC(=O)[C@H](CCC(N)=O)NC(=O)[C@@H](CO)NC(=O)[C@@H](N)Cc1c[nH]cn1)[C@@H](C)O)[C@@H](C)O)C(=O)N[C@@H](CCC(=O)O)C(=O)N[C@@H](Cc1c[nH]c2ccccc12)C(=O)N[C@@H](CC(C)C)C(=O)N[C@@H](CCCCN)C(=O)N[C@@H](CCCNC(=N)N)C(=O)NCC(=O)NCC(=O)N1CCC[C@H]1C(=O)N[C@@H](CO)C(=O)N[C@@H](CO)C(=O)NCC(=O)N[C@@H](C)C(=O)N1CCC[C@H]1C(=O)N1CCC[C@H]1C(=O)N1CCC[C@H]1C(=O)N[C@@H](CO)C(N)=O [compound 185] |  | 
7 | 0.195 nM | 0.152 nM | CC[C@H](C)[C@H](NC(=O)[C@H](Cc1ccccc1)NC(=O)[C@H](CC(=O)O)NC(=O)[C@H](CCC(N)=O)NC(=O)[C@H](C)NC(=O)[C@H](CCCNC(=N)N)NC(=O)[C@H](CCCNC(=N)N)NC(=O)[C@H](CO)NC(=O)[C@H](CC(=O)O)NC(=O)[C@H](CCSC)NC(=O)[C@H](CCC(N)=O)NC(=O)[C@H](CCCCN)NC(=O)[C@H](CO)NC(=O)[C@H](CC(C)C)NC(=O)[C@H](CC(=O)O)NC(=O)[C@H](CO)NC(=O)[C@@H](NC(=O)[C@H](Cc1ccccc1)NC(=O)[C@@H](NC(=O)CNC(=O)[C@H](CCC(N)=O)NC(=O)[C@@H](CO)NC(=O)[C@@H](N)Cc1c[nH]cn1)[C@@H](C)O)[C@@H](C)O)C(=O)N[C@@H](CCC(=O)O)C(=O)N[C@@H](Cc1c[nH]c2ccccc12)C(=O)N[C@@H](CC(C)C)C(=O)N[C@@H](CCCCN)C(=O)NC(C)(C)C(=O)NCC(=O)NCC(=O)N1CCC[C@H]1C(=O)N[C@@H](CO)C(=O)N[C@@H](CO)C(=O)NCC(=O)N[C@@H](C)C(=O)N1CCC[C@H]1C(=O)N1CCC[C@H]1C(=O)N1CCC[C@H]1C(=O)N[C@@H](CO)C(N)=O [compound 187] |  | 
8 | 0.186 nM | 0.0896 nM | CC[C@H](C)[C@H](NC(=O)[C@H](Cc1ccccc1)NC(=O)[C@H](CC(=O)O)NC(=O)[C@H](CCC(N)=O)NC(=O)[C@H](C)NC(=O)[C@H](CCCNC(=N)N)NC(=O)[C@H](CCCNC(=N)N)NC(=O)[C@H](CO)NC(=O)[C@H](CC(=O)O)NC(=O)[C@H](CCSC)NC(=O)[C@H](CCC(N)=O)NC(=O)[C@H](CCCCN)NC(=O)[C@H](CO)NC(=O)[C@H](CC(C)C)NC(=O)[C@H](CC(=O)O)NC(=O)[C@H](CO)NC(=O)[C@@H](NC(=O)[C@H](Cc1ccccc1)NC(=O)[C@@H](NC(=O)CNC(=O)[C@H](CCC(N)=O)NC(=O)[C@@H](CO)NC(=O)[C@@H](N)Cc1c[nH]cn1)[C@@H](C)O)[C@@H](C)O)C(=O)N[C@@H](CCC(=O)O)C(=O)N[C@@H](Cc1c[nH]c2ccccc12)C(=O)N[C@@H](CC(C)C)C(=O)N[C@@H](CCCCN)C(=O)N[C@@H](C)C(=O)NCC(=O)NCC(=O)N1CCC[C@H]1C(=O)N[C@@H](CO)C(=O)N[C@@H](CO)C(=O)NCC(=O)N[C@@H](C)C(=O)N1CCC[C@H]1C(=O)N1CCC[C@H]1C(=O)N1CCC[C@H]1C(=O)N[C@@H](CO)C(N)=O [compound 188] |  | 
